Only a part is listed here, and it is no random draw. Active and inactive are the calls of the source.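 Rule for the calls: active = compounds causing at least 50% loss of cell viability in the single-dose screen, relative to plate controls; inactive = the rest.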

The assay can be described thus: viability loss with TRAIL in NB7+C8 cells, primary screen, TRAIL sensitizer project, cell-based, ATPlite luminescence (AID 624354). The note with it: at 10 µM, active compounds read high. A general note: ATP-based viability assays read luminescence as a measure of living cells.
`N#CC1(Nc2ccccc2)CCN(Cc2ccccc2)CC1`: the inhibition (viability loss, TRAIL sensitization) is inactive: 13.9%.

On to `O=C(NCC1(N2CCCCC2)CCCCC1)c1ccc(Cl)s1`, for which the inhibition (viability loss, TRAIL sensitization) is inactive: 1.34%.

`O=C(OC1CN2CCC1CC2)C1c2ccccc2Oc2ccccc21` (centres undefined): the inhibition (viability loss, TRAIL sensitization) was inactive: -12.3%.

Regarding `O=c1[nH]c2ccccc2n1C1CCN(C(c2cc3ccccc3o2)c2nnnn2C2CCCCC2)CC1` (centres undefined), the inhibition (viability loss, TRAIL sensitization) was inactive: 37.7%.

For the compound `COc1ccc(Cl)cc1C(=O)NCC1(N2CCOCC2)CCCCC1`, the inhibition (viability loss, TRAIL sensitization) is inactive: -9.84%.

As to `CCOC(=O)N1CCC(Nc2ccc(OC)cc2)CC1`, the inhibition (viability loss, TRAIL sensitization) was inactive: -1.71%.

As to `CCCCn1nnnc1C(c1ccc(OC)cc1)N1CCC(n2c(=O)[nH]c3ccccc32)CC1` (centres undefined), the inhibition (viability loss, TRAIL sensitization) was inactive: 6.54%.

Take `CCOc1ncccc1C(=O)NCC1(N2CCOCC2)CCCCC1`: the inhibition (viability loss, TRAIL sensitization) was inactive: 2.12%.

With `CN1CCC(Nc2ccc(F)c(Cl)c2)CC1`, the inhibition (viability loss, TRAIL sensitization) is inactive: 7.04%.

As for `CC(C)(C)OC(=O)N1CCC(Nc2ccccc2)CC1`, the inhibition (viability loss, TRAIL sensitization) was inactive: 1.27%.

Turning to `O=C(O)C1(Nc2ccccc2)CCN(Cc2ccccc2)CC1`, the inhibition (viability loss, TRAIL sensitization) is inactive: 7.93%.

Take `NN(c1ccccc1)C1CCN(CCc2ccccc2)CC1`: the inhibition (viability loss, TRAIL sensitization) is inactive: -13.6%.

As to `O=c1[nH]c2ccccc2n1C1CCN(C(c2cc3ccccc3o2)c2nnnn2C2CCCC2)CC1` (centres undefined), the inhibition (viability loss, TRAIL sensitization) is inactive: 17.9%.

Take `CCCOc1ccc(C(=O)NCC2(N(C)C)CCCCC2)cc1`: the inhibition (viability loss, TRAIL sensitization) is inactive: -22.1%.

For `COc1cccc(C(c2nnnn2C2CCCC2)N2CCC(n3c(=O)[nH]c4ccccc43)CC2)c1OC` (centres undefined), the inhibition (viability loss, TRAIL sensitization) was inactive: -9.79%.

`COc1cc(OC)cc(C(=O)NCC2(N3CCOCC3)CCCCC2)c1`: the inhibition (viability loss, TRAIL sensitization) was inactive: -1.72%.

Turning to `COc1cccc(C(=O)N(c2cc(C)cc(C)c2)C2CCN(C(=O)OC(C)(C)C)CC2)c1`, the inhibition (viability loss, TRAIL sensitization) is inactive: -12.5%.

For `CCC(CO)(C(=O)OC1CN2CCC1CC2)c1ccccc1` (centres undefined), the inhibition (viability loss, TRAIL sensitization) is inactive: -0.194%.

On to `CN1CCC(Nc2ccc(Cl)cc2)CC1`, for which the inhibition (viability loss, TRAIL sensitization) is inactive: -16.4%.

Regarding `COc1cccc(C(c2nnnn2C2CCCCC2)N2CCC(n3c(=O)[nH]c4ccccc43)CC2)c1OC` (centres undefined), the inhibition (viability loss, TRAIL sensitization) is inactive: 18.2%.

On to `CC(=O)N(c1ccccc1)C1CCNCC1`, for which the inhibition (viability loss, TRAIL sensitization) is inactive: 1.37%.

Turning to `CCC(c1nnnn1C1CCCCC1)N1CCC(n2c(=O)[nH]c3ccccc32)CC1` (centres undefined), the inhibition (viability loss, TRAIL sensitization) was inactive: 7.66%.

For the compound `COc1cc(OC)cc(C(=O)NCC2(N3CCCCC3)CCCCC2)c1`, the inhibition (viability loss, TRAIL sensitization) was inactive: 0.419%.

With `O=c1[nH]c2ccccc2n1C1CCN(C(c2ccnc3ccccc23)c2nnnn2C2CCCCC2)CC1` (centres undefined), the inhibition (viability loss, TRAIL sensitization) is inactive: 4.46%.

Turning to `Cc1ccc(C(=O)NCC2(N3CCCCC3)CCCCC2)o1`, the inhibition (viability loss, TRAIL sensitization) is inactive: -2.29%.

Regarding `Fc1ccccc1NC1CCN(Cc2ccccc2)CC1`, the inhibition (viability loss, TRAIL sensitization) is inactive: -4%.

Consider `Cc1ccc(NC2(C#N)CCN(Cc3ccccc3)CC2)cc1`, for which the inhibition (viability loss, TRAIL sensitization) was inactive: -1.94%.

Regarding `Cc1ccccc1NC1(C#N)CCN(Cc2ccccc2)CC1`, the inhibition (viability loss, TRAIL sensitization) is inactive: -0.941%.

Consider `COc1ccc(C(c2nnnn2C2CCCCC2)N2CCC(n3c(=O)[nH]c4ccccc43)CC2)cc1` (centres undefined), for which the inhibition (viability loss, TRAIL sensitization) was inactive: 6.18%.

Consider `CCN1CCC(Nc2cccc(F)c2)CC1`, for which the inhibition (viability loss, TRAIL sensitization) was inactive: -1.65%.

Take `CC(C)(C)n1nnnc1C(c1ccnc2ccccc12)N1CCC(n2c(=O)[nH]c3ccccc32)CC1` (centres undefined): the inhibition (viability loss, TRAIL sensitization) is inactive: -2.46%.

As to `O=C(NCC1(N2CCCCC2)CCCCC1)c1ccco1`, the inhibition (viability loss, TRAIL sensitization) is inactive: 4.61%.

For `CN(C)c1ccc(C(=O)NCC2(N3CCCCC3)CCCCC2)cc1`, the inhibition (viability loss, TRAIL sensitization) was inactive: 5.46%.

Take `Cn1c(=O)[nH]cc(N(CCCl)CCCl)c1=O`: the inhibition (viability loss, TRAIL sensitization) is inactive: -6.2%.

For the compound `N#Cc1ccc(C(=O)NCC2(N3CCCCC3)CCCCC2)cc1`, the inhibition (viability loss, TRAIL sensitization) is inactive: 1.22%.

Regarding `CC(C)(C)OC(=O)N1CCC(N(C(=O)c2ccccc2)c2ccc(Cl)cc2)CC1`, the inhibition (viability loss, TRAIL sensitization) was inactive: -3.91%.

On to `CN(C)C1(CNC(=O)c2cccc(C#N)c2)CCCCC1`, for which the inhibition (viability loss, TRAIL sensitization) is inactive: -24.7%.

`c1ccc(CN2CCC(Nc3ccccc3)CC2)cc1`: the inhibition (viability loss, TRAIL sensitization) was inactive: 4.04%.

Consider `O=c1[nH]c2ccccc2n1C1CCN(C(c2ccccc2)c2nnnn2C2CCCC2)CC1` (centres undefined), for which the inhibition (viability loss, TRAIL sensitization) is inactive: -13.5%.

As for `CCCN1CCC(Nc2cc(OC)cc(OC)c2)CC1`, the inhibition (viability loss, TRAIL sensitization) is inactive: -5.58%.

For `Cc1cc(N(CCCl)CCCl)ccc1C=O`, the inhibition (viability loss, TRAIL sensitization) was inactive: -15.5%.

On to `CC(C)(C)n1nnnc1C(c1cccc2ccccc12)N1CCC(n2c(=O)[nH]c3ccccc32)CC1` (centres undefined), for which the inhibition (viability loss, TRAIL sensitization) is inactive: 3.74%.

With `CCCCn1nnnc1C(c1ccccc1)N1CCC(n2c(=O)[nH]c3ccccc32)CC1` (centres undefined), the inhibition (viability loss, TRAIL sensitization) was inactive: 7.38%.

For `COc1cc(C(=O)NCC2(N3CCOCC3)CCCCC2)cc(OC)c1C`, the inhibition (viability loss, TRAIL sensitization) was inactive: -22.5%.

`O=C(NCC1(N2CCOCC2)CCCCC1)c1cc(Br)ccc1Cl`: the inhibition (viability loss, TRAIL sensitization) is inactive: -1.93%.

As for `O=c1[nH]c2ccccc2n1C1CCN(C(c2cccs2)c2nnnn2C2CCCCC2)CC1` (centres undefined), the inhibition (viability loss, TRAIL sensitization) was inactive: -0.569%.

On to `COc1ccc(C(=O)NCC2(N3CCOCC3)CCCCC2)cc1OC`, for which the inhibition (viability loss, TRAIL sensitization) is inactive: -6.93%.

On to `O=c1[nH]c2ccccc2n1C1CCN(C(c2ccnc3ccccc23)c2nnnn2C2CCCC2)CC1` (centres undefined), for which the inhibition (viability loss, TRAIL sensitization) is inactive: -0.195%.

With `CCOC(=O)N1CCC(Nc2ccc(C)cc2)CC1`, the inhibition (viability loss, TRAIL sensitization) is inactive: 1.01%.

Take `COc1cccc(C(c2nnnn2C(C)(C)C)N2CCC(n3c(=O)[nH]c4ccccc43)CC2)c1OC` (centres undefined): the inhibition (viability loss, TRAIL sensitization) is inactive: 1.73%.

`N/C(=N\O)c1c(N)no[n+]1[O-]`: the inhibition (viability loss, TRAIL sensitization) was inactive: 4.4%.

Regarding `O=C(OC1CN2CCC1CC2)C1c2ccccc2C=Cc2ccccc21` (centres undefined), the inhibition (viability loss, TRAIL sensitization) was inactive: -4.69%.

For the compound `O=c1[nH]c2ccccc2n1C1CCN(C(c2cccs2)c2nnnn2C2CCCC2)CC1` (centres undefined), the inhibition (viability loss, TRAIL sensitization) is inactive: 0.824%.

For the compound `CCCCn1nnnc1C(c1cccc(OC)c1OC)N1CCC(n2c(=O)[nH]c3ccccc32)CC1` (centres undefined), the inhibition (viability loss, TRAIL sensitization) was inactive: -3.98%.
